Test results taken from patent publication US11691963B2, “6-heteroaryloxy benzimidazoles and azabenzimidazoles as JAK2 inhibitors” (Ajax Therapeutics, Inc., priority 2020, dated 2023).

The chains behind the UniProt entries cited, without tags or fusion partners. Residues count along the entry.
UniProt O60674, 849-1124 Y1007F/Y1008F: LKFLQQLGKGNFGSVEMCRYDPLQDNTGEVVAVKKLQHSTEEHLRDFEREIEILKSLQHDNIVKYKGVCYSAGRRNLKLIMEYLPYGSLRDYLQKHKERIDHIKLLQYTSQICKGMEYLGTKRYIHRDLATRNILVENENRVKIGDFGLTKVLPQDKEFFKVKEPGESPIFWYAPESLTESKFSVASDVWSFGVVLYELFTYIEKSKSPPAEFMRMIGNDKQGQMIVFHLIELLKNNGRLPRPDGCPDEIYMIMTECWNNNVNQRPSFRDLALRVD

What follows are molecules tested against JAK2 (JH1domain-catalytic, Y1007F,Y1008F) kinase (Homo sapiens (Human), UniProt O60674, Y1007F/Y1008F) (assay: biochemical).

Kd, 50 to 1000 nM:
CC(=O)Nc1cc(Oc2ccc3nc(Nc4nc5c(s4)CC(C)(C)CC5)n(C)c3c2C)ccn1 [Example I-44, N-(4-((2-((6,6-dimethyl-4,5,6,7-tetrahydrobenzo[d]thiazol-2-yl)amino)-1,7-dimethyl-1H-benzo[d]imidazol-6-yl)oxy)pyridin-2-yl)acetamide]
CC(=O)Nc1cc(Oc2ccc3nc(Nc4cc(C5CC5)nn(C)c4=O)n(C)c3n2)ccn1 [Example I-86, N-(4-((2-((6-cyclopropyl-2-methyl-3-oxo-2,3-dihydropyridazin-4-yl)amino)-3-methyl-3H-imidazo[4,5-b]pyridin-5-yl)oxy)pyridin-2-yl)acetamide]
CC(=O)Nc1cc(Oc2ccc3nc(Oc4cc(C5CC5)cn(C)c4=O)n(C)c3n2)ccn1 [Example I-95, N-(4-((2-((5-cyclopropyl-1-methyl-2-oxo-1,2-dihydropyridin-3-yl)oxy)-3-methyl-3H-imidazo[4,5-b]pyridin-5-yl)oxy)pyridin-2-yl)acetamide]
CC(=O)Nc1cc(Oc2ccc3nc(Nc4cc(C(C)(C)C)n(CC5COC5)n4)n(C)c3n2)ccn1 [Example I-101, N-(4-((2-((5-(tert-butyl)-1-(oxetan-3-ylmethyl)-1H-pyrazol-3-yl)amino)-3-methyl-3H-imidazo[4,5-b]pyridin-5-yl)oxy)pyridin-2-yl)acetamide]
CNC(=O)c1cc(Oc2cnc3nc(Nc4cc(C(C)(C)C)n([C@@H]5CCOC5)n4)n(C)c3c2)ccn1 [Example I-105, (R)-4-((2-((5-(tert-butyl)-1-(tetrahydrofuran-3-yl)-1H-pyrazol-3-yl)amino)-1-methyl-1H-imidazo[4,5-b]pyridin-6-yl)oxy)-N-methylpicolinamide]
CNC(=O)c1cc(Oc2cnc3nc(Nc4cc(C(C)(C)C)n([C@H]5CCOC5)n4)n(C)c3c2)ccn1 [Example I-106, (S)-4-((2-((5-(tert-butyl)-1-(tetrahydrofuran-3-yl)-1H-pyrazol-3-yl)amino)-1-methyl-1H-imidazo[4,5-b]pyridin-6-yl)oxy)-N-methylpicolinamide]

Kd, < 10 nM:
CC(=O)Nc1cc(Oc2cnc3nc(Nc4cc(C(C)(C)C)n([C@H]5CCOC5)n4)n(C)c3c2)ccn1 [Example I-99, (S)—N-(4-((2-((5-(tert-butyl)-1-(tetrahydrofuran-3-yl)-1H-pyrazol-3-yl)amino)-1-methyl-1H-imidazo[4,5-b]pyridin-6-yl)oxy)pyridin-2-yl)acetamide]
CC(=O)Nc1cc(Oc2cnc3nc(Nc4cc(C(C)(C)C)n([C@@H]5CCOC5)n4)n(C)c3c2)ccn1 [Example I-100, (R)—N-(4-((2-((5-(tert-butyl)-1-(tetrahydrofuran-3-yl)-1H-pyrazol-3-yl)amino)-1-methyl-1H-imidazo[4,5-b]pyridin-6-yl)oxy)pyridin-2-yl)acetamide]
CC(=O)Nc1cc(Oc2cnc3nc(Nc4cc(C5CC5)cn(C)c4=O)n(C)c3c2)ccn1 [Example I-103, N-(4-((2-((5-cyclopropyl-1-methyl-2-oxo-1,2-dihydropyridin-3-yl)amino)-1-methyl-1H-imidazo[4,5-b]pyridin-6-yl)oxy)pyridin-2-yl)acetamide]
CC(=O)Nc1cc(Oc2cnc3nc(Nc4cc5n(n4)CCCC5(C)C)n(C)c3c2)ccn1 [Example I-104, N-(4-((2-((4,4-dimethyl-4,5,6,7-tetrahydropyrazolo[1,5-c]pyridin-2-yl)amino)-1-methyl-1H-imidazo[4,5-b]pyridin-6-yl)oxy)pyridin-2-yl)acetamide]
Cn1c(Nc2cc(C(C)(C)C)n([C@@H]3CCOC3)n2)nc2ncc(Oc3ccnc(NC(=O)C4CC4)c3)cc21 [Example I-109, (R)—N-(4-((2-((5-(tert-butyl)-1-(tetrahydrofuran-3-yl)-1H-pyrazol-3-yl)amino)-1-methyl-1H-imidazo[4,5-b]pyridin-6-yl)oxy)pyridin-2-yl)cyclopropanecarboxamide]
Cn1c(Nc2cc(C(C)(C)C)n([C@H]3CCOC3)n2)nc2ncc(Oc3ccnc(NC(=O)C4CC4)c3)cc21 [Example I-110, (S)—N-(4-((2-((5-(tert-butyl)-1-(tetrahydrofuran-3-yl)-1H-pyrazol-3-yl)amino)-1-methyl-1H-imidazo[4,5-b]pyridin-6-yl)oxy)pyridin-2-yl)cyclopropanecarboxamide]
COCCC(=O)Nc1cc(Oc2cnc3nc(Nc4cc(C(C)(C)C)n([C@@H]5CCOC5)n4)n(C)c3c2)ccn1 [Example I-118, (R)—N-(4-((2-((5-(tert-butyl)-1-(tetrahydrofuran-3-yl)-1H-pyrazol-3-yl)amino)-1-methyl-1H-imidazo[4,5-b]pyridin-6-yl)oxy)pyridin-2-yl)-3-methoxypropanamide]
CC(=O)Nc1cc(Oc2cnc3nc(Nc4cc(C(C)(C)C)n([C@H]5C[C@H](O)C5)n4)n(C)c3c2C)ccn1 [Example I-122, N-(4-((2-((5-(tert-butyl)-1-((1r,3r)-3-hydroxycyclobutyl)-1H-pyrazol-3-yl)amino)-1,7-dimethyl-1H-imidazo[4,5-b]pyridin-6-yl)oxy)pyridin-2-yl)acetamide]
CC(=O)Nc1cc(Oc2cnc3nc(Nc4cc(C(C)(C)C)n([C@H]5C[C@@H](O)C5)n4)n(C)c3c2C)ccn1 [Example I-123, N-(4-((2-((5-(tert-butyl)-1-((1s,3s)-3-hydroxycyclobutyl)-1H-pyrazol-3-yl)amino)-1,7-dimethyl-1H-imidazo[4,5-b]pyridin-6-yl)oxy)pyridin-2-yl)acetamide]

Kd, 1000 to 5000 nM:
CC(=O)Nc1cc(Oc2ccc3nc(Nc4cc(N5CCC5)cn(C)c4=O)n(C)c3c2)ccn1 [Example I-82, N-(4-((2-((5-(azetidin-1-yl)-1-methyl-2-oxo-1,2-dihydropyridin-3-yl)amino)-1-methyl-1H-benzo[d]imidazol-6-yl)oxy)pyridin-2-yl)acetamide]
CC(=O)Nc1cc(Oc2ccc3nc(Nc4cc(C5CC5)c(=O)n(C5CCOCC5)n4)n(C)c3c2)ccn1 [Example I-88, N-(4-((2-((5-cyclopropyl-6-oxo-1-(tetrahydro-2H-pyran-4-yl)-1,6-dihydropyridazin-3-yl)amino)-1-methyl-1H-benzo[d]imidazol-6-yl)oxy)pyridin-2-yl)acetamide]
CC(=O)Nc1cc(Oc2ccc3nc(Oc4cccn(C)c4=O)n(C)c3c2)ccn1 [Example I-91, N-(4-((1-methyl-2-((1-methyl-2-oxo-1,2-dihydropyridin-3-yl)oxy)-1H-benzo[d]imidazol-6-yl)oxy)pyridin-2-yl)acetamide]

Kd, 10 to 50 nM:
CC(=O)Nc1cc(Oc2ccc3nc(Nc4cc5c(c(C(F)(F)F)c4)CCN(C(C)=O)C5)n(C)c3c2)ccn1 [Example I-46, N-(4-((2-((2-acetyl-5-(trifluoromethyl)-1,2,3,4-tetrahydroisoquinolin-7-yl)amino)-1-methyl-1H-benzo[d]imidazol-6-yl)oxy)pyridin-2-yl)acetamide]
COCCN1C(=O)C(C)(C)c2c1cc(Nc1nc3ccc(Oc4ccnc(NC(C)=O)c4)cc3n1C)cc2C(F)(F)F [Example I-47, N-(4-((2-((1-(2-methoxyethyl)-3,3-dimethyl-2-oxo-4-(trifluoromethyl)indolin-6-yl)amino)-1-methyl-1H-benzo[d]imidazol-6-yl)oxy)pyridin-2-yl)acetamide]
CC(=O)Nc1cc(Oc2ccc3nc(Nc4cc5c(c(C(F)(F)F)c4)C(C)(C)C(=O)N5CCO)n(C)c3c2)ccn1 [Example I-48, N-(4-((2-((1-(2-hydroxyethyl)-3,3-dimethyl-2-oxo-4-(trifluoromethyl)indolin-6-yl)amino)-1-methyl-1H-benzo[d]imidazol-6-yl)oxy)pyridin-2-yl)acetamide]
CC(=O)Nc1cc(Oc2ccc3nc(Nc4cc5c(c(C(F)(F)F)c4)C(C)(C)N(C)C5=O)n(C)c3c2)ccn1 [Example I-49, N-(4-((1-methyl-2-((1,1,2-trimethyl-3-oxo-7-(trifluoromethyl)isoindolin-5-yl)amino)-1H-benzo[d]imidazol-6-yl)oxy)pyridin-2-yl)acetamide]
CC(=O)Nc1cc(Oc2cc(C)c3nc(Nc4cc(C5CC5)cn(C)c4=O)n(C)c3n2)ccn1 [Example I-64, N-(4-((2-((5-cyclopropyl-1-methyl-2-oxo-1,2-dihydropyridin-3-yl)amino)-3,7-dimethyl-3H-imidazo[4,5-b]pyridin-5-yl)oxy)pyridin-2-yl)acetamide]
CC(=O)Nc1cc(Oc2ccc3nc(Oc4cc(C5CC5)cn(C)c4=O)n(C)c3c2)ccn1 [Example I-89, N-(4-((2-((5-cyclopropyl-1-methyl-2-oxo-1,2-dihydropyridin-3-yl)oxy)-1-methyl-1H-benzo[d]imidazol-6-yl)oxy)pyridin-2-yl)acetamide]
CC(=O)Nc1cc(Oc2ccc3nc(Oc4cc(-n5cccn5)cn(C(C)C)c4=O)n(C)c3n2)ccn1 [Example I-93, N-(4-((2-((1-isopropyl-2-oxo-5-(1H-pyrazol-1-yl)-1,2-dihydropyridin-3-yl)oxy)-3-methyl-3H-imidazo[4,5-b]pyridin-5-yl)oxy)pyridin-2-yl)acetamide]
CC(=O)Nc1cc(Oc2cnc3nc(Oc4cc(C5CC5)cn(C)c4=O)n(C)c3c2)ccn1 [Example I-96, N-(4-((2-((5-cyclopropyl-1-methyl-2-oxo-1,2-dihydropyridin-3-yl)oxy)-1-methyl-1H-imidazo[4,5-b]pyridin-6-yl)oxy)pyridin-2-yl)acetamide]
CC(=O)Nc1cc(Oc2cnc3nc(Oc4cc(C5CC5)cn(C(C)C)c4=O)n(C)c3c2)ccn1 [Example I-97, N-(4-((2-((5-cyclopropyl-1-isopropyl-2-oxo-1,2-dihydropyridin-3-yl)oxy)-1-methyl-1H-imidazo[4,5-b]pyridin-6-yl)oxy)pyridin-2-yl)acetamide]
CC(=O)Nc1cc(Oc2cnc3nc(Nc4cc(C(C)(C)C)n(C5CCN(CCF)CC5)n4)n(C)c3c2)ccn1 [Example I-113, N-(4-((2-((5-(tert-butyl)-1-(1-(2-fluoroethyl)piperidin-4-yl)-1H-pyrazol-3-yl)amino)-1-methyl-1H-imidazo[4,5-b]pyridin-6-yl)oxy)pyridin-2-yl)acetamide]
